Test results as given in PubChem BioAssay AID828 (The Scripps Research Institute Molecular Screening Center, 2007).
Only a part is listed here, and it is no random draw. Calls of active or inactive are those of the source. Rule as the data show it: active = inhibition above about 27%; inactive = the rest.

Chains of the proteins cited; added tags and fusions are not shown.
UniProt O43603, whole entry: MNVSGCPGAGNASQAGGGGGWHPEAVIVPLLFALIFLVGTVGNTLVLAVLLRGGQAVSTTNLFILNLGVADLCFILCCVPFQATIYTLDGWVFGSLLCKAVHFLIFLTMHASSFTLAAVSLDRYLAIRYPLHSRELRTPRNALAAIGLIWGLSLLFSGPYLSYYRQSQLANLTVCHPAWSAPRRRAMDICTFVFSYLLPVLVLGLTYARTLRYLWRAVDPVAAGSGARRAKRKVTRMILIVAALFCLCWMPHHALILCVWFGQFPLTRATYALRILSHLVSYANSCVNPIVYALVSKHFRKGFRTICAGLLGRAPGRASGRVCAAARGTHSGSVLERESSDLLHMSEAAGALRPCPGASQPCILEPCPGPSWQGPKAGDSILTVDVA

target: Galanin receptor type 2 (Homo sapiens) (UniProt O43603); experiment: GALR2 antagonists in receptor-expressing cells, primary screen (AID 828); settings: antagonist mode, at 4 µM, hits give high values;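 also: cells stimulated with galanin 1-16 at roughly its EC80; 0% = agonist challenge control and 100% = basal control without agonist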

| Structure (SMILES) | inhibition |
| --- | --- |
| CCN(N=Nc1nonc1N)c1nonc1N | inactive: 1.74% |
